Data taken from ChEMBL document CHEMBL1268987, “Identification of 2-oxo-N-(phenylmethyl)-4-imidazolidinecarboxamide antagonists of the P2X(7) receptor” (Bioorg Med Chem Lett, 2010).

Chains of the proteins cited; added tags and fusions are not shown. Lines headed by an entry give the natural chain unless they say otherwise; changes in a name come on top.
UniProt Q99572: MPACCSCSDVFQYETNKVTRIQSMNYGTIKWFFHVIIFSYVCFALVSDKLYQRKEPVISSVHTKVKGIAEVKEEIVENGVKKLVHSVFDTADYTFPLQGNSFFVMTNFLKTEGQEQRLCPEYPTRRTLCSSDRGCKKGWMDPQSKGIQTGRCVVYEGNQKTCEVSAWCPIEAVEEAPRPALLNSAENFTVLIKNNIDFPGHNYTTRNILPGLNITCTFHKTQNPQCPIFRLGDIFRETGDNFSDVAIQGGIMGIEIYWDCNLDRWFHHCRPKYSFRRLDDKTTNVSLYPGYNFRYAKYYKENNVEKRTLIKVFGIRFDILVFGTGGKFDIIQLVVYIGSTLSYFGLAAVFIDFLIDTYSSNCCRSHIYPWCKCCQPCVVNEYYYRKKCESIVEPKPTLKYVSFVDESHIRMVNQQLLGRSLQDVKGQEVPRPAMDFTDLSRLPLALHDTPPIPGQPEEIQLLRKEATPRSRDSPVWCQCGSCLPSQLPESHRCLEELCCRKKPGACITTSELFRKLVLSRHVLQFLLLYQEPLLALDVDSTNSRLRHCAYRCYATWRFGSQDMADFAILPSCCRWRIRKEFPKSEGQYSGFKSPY

Biological target: P2X purinoceptor 7 (Homo sapiens, UniProt Q99572)
Assay: Antagonist activity at human recombinant P2X7 receptor expressed in HEK293 cells by ethidium accumulation assay
Assay type: functional, cell-based
Procedure, shortened: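 Ethidium accumulation read-out: ATP activation of the receptor opens a large pore, and uptake of ethidium bromide dye into the cells is measured by fluorescence. Values are pIC50, reported as the average of n >3.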

IC50: 0.631 nM
Structure (SMILES): CN1C[C@@H](C(=O)NCc2cccc(C(F)(F)F)c2Cl)N(C)C1=O
